AlphaSeq binding of Ab-95 light chain variants to a spike HR2 peptide

From the AlphaSeq antibody data of Engelhart et al. 2022 (doi:10.1038/s41597-022-01779-4), copy in the FLAb collection.

Target peptide (SARS-CoV-2 spike, HR2 region): PDVDLGDISGINAS

Ab-95 is the parent antibody, in scFv form: VH, then a (GGGGS)3 linker, then VL. The heavy chain is unchanged in all variants.
VH: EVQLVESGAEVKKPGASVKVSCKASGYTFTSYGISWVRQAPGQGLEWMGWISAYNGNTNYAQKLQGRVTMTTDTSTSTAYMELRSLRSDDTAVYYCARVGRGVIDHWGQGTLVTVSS
VL: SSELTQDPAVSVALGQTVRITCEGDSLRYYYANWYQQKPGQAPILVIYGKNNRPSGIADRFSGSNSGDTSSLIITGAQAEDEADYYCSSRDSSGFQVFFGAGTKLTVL

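The parent was found by panning a naive human phage display library on the peptide. Variants in AAYL52 differ from the parent at up to three CDR positions; double and triple changes were sampled at random. The assay is AlphaSeq: two haploid yeast populations carry antibody and antigen on their surface. Mating (16 h, 30 °C) was followed by selection of diploids and sequencing of their barcodes. A regression on co-assayed BCL2-family reference pairs converts the normalised counts of each replicate to an apparent Kd. There are three technical replicates.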

Variants are written as CDR1, CDR2 and CDR3 of the light chain (limits as in the source). Parent: EGDSLRYYYAN, GKNNRPS, SSRDSSGFQVF.
Every variant below is changed at N51 of the VL (sequential numbering).
Affinities are written as log10 Kd with Kd in nM; a lower number is a better binder.
Replicates are averaged; those with no signal do not enter the mean.
"ND" marks a missing value. The strain was present, yet no cells mated with the target were sequenced in that replicate, which points to weak or no binding.
As a blank, each scFv also met three strains without target: over library AAYL52, 28% of these pairings were detected, typically at 3.91 and seldom below 2.90.

EGDSLRYYYAN / GKTNEPS / SSRDYSGFQVF: 2.33, 3.08, 2.04 (mean 2.48).
EGDSLRYYYAN / GVPNRPS / SSRDSSGVQVF: 3.83, ND, ND.
EGDSLRYYYAN / GKENRPS / SSRDSSGYQVF: 2.34, 2.32, 2.07 (mean 2.24).
EGDSLRYYYAN / GKHKRPS / SSRDSSGFSVF: 5.02, ND, 3.79 (mean 4.40).
EGDSLRYYYAN / GKYNRPS / SSRDSSAFQSF: ND, ND, 3.58.
EGDSLRYYYAN / GKMNRPS / SSRDRYGFQVF: ND, ND, 3.64.
EGDSLRYYYMN / GKTNRPS / SSQDSSGFQVF: ND, ND, ND.
EGDELRYYYAN / GKGNRPS / SSRDSSGFQVF: 3.07, 3.56, 4.06 (mean 3.56).
EGISLRYYYAN / GKHNRPA / SSRDSSGFQVF: 3.46, 3.63, 3.16 (mean 3.42).
EGDSLRYYYAN / GHANRPN / SSRDSSGFQVF: 2.84, 2.99, 2.24 (mean 2.69).
EGDSLRYYYAN / GKENRPS / SSRFSSGFHVF: ND, ND, ND.
EGKSLRYYYAN / GDTNRPS / SSRDSSGFQVF: 2.80, 2.88, 2.21 (mean 2.63).
EGDSLRYYYAN / GKFNSPS / SSRDWSGFQVF: 3.34, 4.62, ND (mean 3.98).
EGDSLRYYYAN / GKMNRES / SSRDSSGFDVF: 4.51, ND, ND.
AGDSLRYYYAN / GKKNRPS / SVRDSSGFQVF: 3.48, 3.57, 2.62 (mean 3.22).
EGQSLRYYYAN / GKYNRPS / SSRDSSGFQVC: 3.04, 3.96, ND (mean 3.50).
EGDSLRYYYAN / GKDNRPS / SWRDSSGFQVR: 2.63, 2.22, 2.19 (mean 2.35).
EGDSLRYYWAN / GKCNRPS / SSRDSSGFQCF: ND, 3.90, ND.
EGDSGRYYYAN / GKSNRPS / SSRDSKGFQVF: ND, 4.63, ND.
EGDSIRYYYAN / GKKNRPS / SSRTSSGFQVF: 3.54, 2.93, 2.83 (mean 3.10).
VGDSLRYYYAN / GKDNRPS / SSRDSSGFQVF: 1.96, 2.03, 1.69 (mean 1.89).
EGDSLRYYYAN / QKFNRPS / SSRDSSGWQVF: ND, 5.23, ND.
EGDSLRYYYAN / GKSNIPS / SSRDESGFQVF: 2.83, 2.66, 3.81 (mean 3.10).
EGDSLRYYYAE / GKGNRPS / SSRDSSGFQVQ: 4.93, ND, ND.
EGDSKRYYYAN / GKVNRPC / SSRDSSGFQVF: ND, 4.27, 4.06 (mean 4.17).
EGDLLRYYYAN / GKVNRPS / SSRDQSGFQVF: 3.97, ND, ND.
EGDSLDYYYAN / GKQNRPS / SSRDCSGFQVF: 3.66, 2.90, 4.28 (mean 3.61).
EGDSLRYYYAW / GKWNRPS / SSTDSSGFQVF: 5.36, ND, ND.
EGCSLRYYYAN / GKGNRPS / SSRDFSGFQVF: 4.16, 4.06, 4.64 (mean 4.29).
EGDSLRTYYAR / GKLNRPS / SSRDSSGFQVF: 2.89, 3.45, 2.95 (mean 3.10).
EGDSLRYYYPY / GKQNRPS / SSRDSSGFQVF: ND, 5.68, 3.51 (mean 4.60).
EGDSLSYYYAN / GKYNRPS / SSRDSSGVQVF: ND, ND, ND.
EGDSLRYYYAN / YKKNRPS / SSRDSSMFQVF: 4.07, ND, ND.
EGDSLRYYYAN / GKQNRPS / SSRDSSLFQEF: 3.73, 2.73, 3.35 (mean 3.27).
EGISLRYYYAN / RKVNRPS / SSRDSSGFQVF: 4.87, ND, ND.
EGRSERYYYAN / GKWNRPS / SSRDSSGFQVF: 3.95, ND, ND.

A selection of 3 entries from above:

CDR-L1	CDR-L2	CDR-L3	replicates, log10 nM	mean, log10 nM
EGDSKRYYYAN	GKVNRPC	SSRDSSGFQVF	ND, 4.27, 4.06	4.17
EGDSLRYYYAN	GKFNSPS	SSRDWSGFQVF	3.34, 4.62, ND	3.98
EGCSLRYYYAN	GKGNRPS	SSRDFSGFQVF	4.16, 4.06, 4.64	4.29